Experimental data from ChEMBL document CHEMBL5500361, “Probing benzenesulfonamide-thiazolidinone hybrids as multitarget directed ligands for efficient control of type 2 diabetes mellitus through targeting the enzymes: α-glucosidase and carbonic anhydrase II” (Eur J Med Chem, 2024).

What was measured:
[1] = test system: MCF7; assay: Antiproliferative activity against human MCF7 cells assessed as inhibition of cell growth under normoxia condition by MTT colorimetric assay
[2] = test system: MCF7; assay: Antiproliferative activity against human MCF7 cells assessed as inhibition of cell growth under hypoxia condition by MTT colorimetric assay

Row | pIC50 [1] | pIC50 [2] | Structure (SMILES)
1 | 5.01 | 4.83 | CCN1C(=O)/C(=C\c2ccc(Cl)cc2)S/C1=N/c1ccc(S(N)(=O)=O)cc1
2 | 5.10 | 4.60 | CCN1C(=O)/C(=C2\C(=O)Nc3ccccc32)S/C1=N/c1ccc(S(N)(=O)=O)cc1

pIC50: −log10 of the molar value.
